Patent US20240408099A1, “COMBINATION […] OF KRAS G12D INHIBITORS WITH Pan ErbB FAMILY INHIBITORS” (MIRATI THERAPEUTICS, INC., priority 2021, published 2024)

Tests used:
Assay in all cases: Composite Synergy Score, Cell-Titer Glo 72 hours, dose matrix with MRTX1133
Format in all cases: cell-based
Settings in all cases: combined with MRTX1133
SNU61 = test system: SNU61
From the text: (§1) A panel of colon, pancreatic, gastric and endometrial cell lines harboring KRas G12D mutations was assembled to determine whether combining pan ErbB family inhibitors with exemplary KRas G12D inhibitors disclosed herein results in synergistic activity. The collection included SNU61 (colon, KCLB #00061), LS180 (colon, ATCC #CL-187), Panc 05.04 (pancreas, ATCC #CRL-2557), Panc 02.03 (pancreas ATCC #CRL-2553), SNU-407 (colon, AddexBio #C0009016), LS513 (colon, ATCC #CRL-2134), HPAC (pancreas, ATCC #CRL-2119), AGS (gastric, ATCC #CRL-1739), SNU-1197 (colon, KCLB #01197.1), SNU-1033 (colon, KCLB #01033), SNU-410 (pancreas, KCLB #00410), HEC-1-B (endometrial, ATCC #HTB-113), SU.86.86 (pancreas, ATCC #CRL-1837), SNU-C2B (colon, ATCC #CCL-250), Panc 08.13 (pancreas, ATCC #CRL-2551), SUIT-2 (pancreas, JCRB #JCRB1094), HPAF-II (pancreas, ATCC #CRL-1997), Panc 04.03 (pancreas, ATCC #CRL-2555), HCC-1588 (lung, KCLB #71588), GP2D (colon, SigmaAldrich #95090714), AsPC-1 (pancreas, ATCC CRL-1682), SW 1990 (pancreas, ATCC CRL-2172), and PANC-1 (pancreas, ATCC #CRL-1469).
(§2) Assays for determining the synergy score for the pairwise combinations for each cell line were performed in triplicate. Three 96-well plates plus an additional 4 wells of a separate 96-well control plate for determining baseline luminescence were seeded with 2000 cells/well of a particular cell line in a total volume of 90 μl of a suitable growth medium for that cell line, e.g., RPMI 1640 medium supplemented with 10% FBS and any cell line specific reagents need for growth. The plates were incubated overnight at 37° C. in a 5% CO2 atmosphere.
(§3) To each of the designated baseline wells, 30 μl of Cell-Titer Glo reagent (CTG; Promega Corporation) was added to each well and the plates were incubated for 20 min with shaking at room temperature. Baseline luminescence was quantitated using a BMG ClarioStar multimode plate reader according to the manufacturer's instructions.
(§4) A series of working stock 1000× drug dilutions in 100% DMSO was prepared that includes an 8 point single agent dilution of MRTX 1133 and a 5-point single agent dilution of the pan ErbB family inhibitor. The dilutions used for MRTX1133 and the pan ErbB family inhibitor varied for each individual compound but were in the range of 3- to 6-fold/serial dilution.
(§5) A 10× intermediate dosing plate was prepared in serum free RPMI medium that contains arrayed single agent dilutions MRTX1133 or the pan ErbB family inhibitor. In addition, a matrix of 40 dilution combinations of MRTX1133 and the pan ErbB family inhibitor was prepared as test samples.
(§6) To each corresponding well of the three 96-well plates seeded with the appropriate cell line above, 10 μl of each 10× single agent and the 40 combinations of the dose matrix was added and the plates were incubated for 72 hours at 37 C in 5% CO2 atmosphere. A 30 μl aliquot of Cell-Titer Glo reagent (CTG) was added to each test well, the plates were incubated for 20 min with shaking at room temperature, and luminescence was quantitated using a BMG ClarioStar multimode plate reader according to the manufacturer's instructions.
(§7) The output of the data from each mathematical model is the assignment of a relative synergy score. The data reported in Table 1 are the aggregate sum of the Loewe additivity, Bliss independence, Highest Single Agent and ZIP scores (“Composite Synergy Score”).
(§8) A custom R-script was created, integrating open source Bioconductor packages, to batch process metadata files containing experimental parameters and raw data files. Various numerical and graphical outputs were generated to summarize the data. Single agent parameters were generated using GRmetrics Clark N, Hafner M, Kouril M, Muhlich J, Niepel M, Williams E, Sorger P, Medvedovic M (2016). “GRcalculator: an online tool for calculating and mining drug response data.” doi: 10.6084/m9.figshare.4244408.v1, http://www.grcalculator.org/. […]

Panc0403 = test system: Panc0403
From the text: as §1, §2, §3, §4, §5, §6, §7, §8

SNU1033 = test system: SNU1033
From the text: as §1, §2, §3, §4, §5, §6, §7, §8

LS180 = test system: LS180
From the text: as §1, §2, §3, §4, §5, §6, §7, §8

AGS = test system: AGS
From the text: as §1, §2, §3, §4, §5, §6, §7, §8

Panc0504 = test system: Panc0504
From the text: as §1, §2, §3, §4, §5, §6, §7, §8

Panc1 = test system: Panc1
From the text: as §1, §2, §3, §4, §5, §6, §7, §8

SNU410 = test system: SNU410
From the text: as §1, §2, §3, §4, §5, §6, §7, §8

SNUC2B = test system: SNUC2B
From the text: as §1, §2, §3, §4, §5, §6, §7, §8

HCC1588 = test system: HCC1588
From the text: as §1, §2, §3, §4, §5, §6, §7, §8

ASPC1 = test system: ASPC1
From the text: as §1, §2, §3, §4, §5, §6, §7, §8

LS513 = test system: LS513
From the text: as §1, §2, §3, §4, §5, §6, §7, §8

SU8684 = test system: SU8684
From the text: as §1, §2, §3, §4, §5, §6, §7, §8

Panc0203 = test system: Panc0203
From the text: as §1, §2, §3, §4, §5, §6, §7, §8

Panc0813 = test system: Panc0813
From the text: as §1, §2, §3, §4, §5, §6, §7, §8

Hec1B = test system: Hec1B
From the text: as §1, §2, §3, §4, §5, §6, §7, §8

SNU1197 = test system: SNU1197
From the text: as §1, §2, §3, §4, §5, §6, §7, §8

HPAC = test system: HPAC
From the text: as §1, §2, §3, §4, §5, §6, §7, §8

GP2D = test system: GP2D
From the text: as §1, §2, §3, §4, §5, §6, §7, §8

SNU407 = test system: SNU407
From the text: as §1, §2, §3, §4, §5, §6, §7, §8

HPAFII = test system: HPAFII
From the text: as §1, §2, §3, §4, §5, §6, §7, §8

SW1990 = test system: SW1990
From the text: as §1, §2, §3, §4, §5, §6, §7, §8

Panc1005 = test system: Panc1005
From the text: as §1, §2, §3, §4, §5, §6, §7, §8

Cetuximab: anti-EGFR monoclonal antibody approved for human clinical use (ImClone)
Composite Synergy Score (SNU61): 52 | Composite Synergy Score (Panc0403): 40 | Composite Synergy Score (SNU1033): 29 | Composite Synergy Score (LS180): 65 | Composite Synergy Score (AGS): 53 | Composite Synergy Score (Panc0504): 44 | Composite Synergy Score (Panc1): −18 | Composite Synergy Score (SNU410): −2 | Composite Synergy Score (SNUC2B): 50 | Composite Synergy Score (HCC1588): −7 | Composite Synergy Score (ASPC1): 34 | Composite Synergy Score (LS513): 62 | Composite Synergy Score (SU8684): 26 | Composite Synergy Score (Panc0203): 47 | Composite Synergy Score (Panc0813): 32 | Composite Synergy Score (Hec1B): 4 | Composite Synergy Score (SNU1197): 6 | Composite Synergy Score (HPAC): 33 | Composite Synergy Score (GP2D): 48 | Composite Synergy Score (SNU407): 23 | Composite Synergy Score (HPAFII): 31 | Composite Synergy Score (SW1990): 16 | Composite Synergy Score (Panc1005): 29
